{"source": "ChEMBL document CHEMBL1137407", "about": "“Identification and optimization of anthranilic sulfonamides as novel, selective cholecystokinin-2 receptor antagonists” (J Med Chem, 2006)", "key": {"Homo sapiens": {"organism": "Homo sapiens", "assay": "Protein binding in human plasma", "conditions": "read-out: PPB"}, "Caco-2": {"tested_on": "Caco-2", "assay": "Ratio of permeability from apical to basolateral over basolateral to apical side of Caco-2 cells", "assay_type": "ADME, cell-based", "conditions": "human"}, "[1]": {"assay": "Protein binding in human serum", "assay_type": "ADME, organism-based", "conditions": "read-out: PPB"}}}
{"smiles": "O=C(c1ccc(Cl)cc1NS(=O)(=O)c1cccc2nsnc12)N1CCCCC1", "values": [{"measurement": "fraction unbound", "setting": "Homo sapiens", "result": "< 0.005"}, {"measurement": "Ratio", "setting": "Caco-2", "result": 0.8}, {"measurement": "fraction unbound", "setting": "[1]", "result": "< 0.005"}]}
